High-throughput results as filed in PubChem BioAssay.
Sampled rows, rich in hits. Any-hit rate of the full collection: about 2.8%.
miR122 inh – blocks miR-122 activity in Huh7 sensor cells; actives 0.3% (n = 340,000); Huh7 miR-122 Renilla luciferase sensor, 48 h; neutral wells = 0, positive control = 100; activation (reporter increase), % at 12.5 µM; AID 602342;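 active = mean replicate activation score at least 90 and every replicate individually at or above 90; inconclusive = only one of the two criteria met; inactive = neither criterion met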;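 note: higher luciferase means less miR-122 activity so hits act as miR-122 inhibitors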
Wnt act – Wnt/beta-catenin pathway activation | Wnt/beta-catenin reporter cell assay, activator, plate reader | activation, % at 9.35 µM | actives 1.2% (n = 300,000); in the data active = activation above about 30%, passing the limit was not always enough; inconclusive = no clear call, values can overlap the other calls;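 note: 0% = neutral control wells and 100% = positive control wells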
PglD DTNB – inhibitors of Campylobacter jejuni PglD acetyltransferase | actives 0.098% (n = 360,000) | inhibition, % at 12.5 µM | purified PglD enzyme, DTNB colorimetric CoA detection; in the data active = inhibition above about 16%, passing the limit was not always enough; inconclusive = no clear call, values can overlap the other calls
UUG fidelity – modulators of yeast start codon fidelity, primary screen, whole organism, S. cerevisiae, single point, plate reader; S. cerevisiae UUG-firefly luciferase reporter, luminescence/redox ratio; activity score, % at 18.7 µM; 0.13% of 350,000 active; AID 602363, 2012;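 active = replicate mean at a twofold rise or more, about +100% in these data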;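 also: firefly luciferase made from a UUG start codon reports start codon fidelity; reporter light over untreated wells divided by growth signal over untreated wells; some hits fall short of that in this replicate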
esBAF inh – inhibitors of esBAF chromatin remodeling in mouse ES cells; Bmi1-luciferase knock-in reporter, 24 h; 100% = twice the neutral-well signal; reporter increase, % at 12.5 µM; actives 2% (n = 350,000); in the data active = activation above about 40%; inconclusive = no clear call, values can overlap the other calls;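 note: 0% = median of the plate's neutral control wells and 100% = double that signal; a rise in the Bmi1 reporter signal indicates esBAF inhibition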
MITF act – increases MITF-driven TRPM1 promoter luciferase signal. SK-MEL-5 TRPM1-promoter luciferase, 24 h; % of positive control, neutral wells = 0. activation, % at 12.5 µM. actives 0.75% (n = 300,000);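 active = mean activation of at least 80% with every replicate also reaching 80%; inconclusive = mean reaches 80% but some replicate falls short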;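 note: 0% = neutral control wells and 100% = parthenolide positive control wells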
The depositor's hits bear a star; ? = inconclusive; . = no result; [ ] = dose if it differs, or a comment.

Results follow in this order: miR122 inh	Wnt act	PglD DTNB	UUG fidelity	esBAF inh	MITF act
#1 Oc1ccccc1C=NN=Cc1c(O)ccc2ccccc12
  .	48.4*	.	.	.	28.7
#2 Oc1ccc2ccccc2c1C=Nc1ccc(Cl)cn1
  .	45.7*	.	.	.	-2.7
#3 COc1ccc(CN(C)C[C@@H]2OCCCC[C@H](C)Oc3ccc(NS(=O)(=O)c4cccs4)cc3C(=O)N([C@@H](C)CO)C[C@@H]2C)cc1
  -6.8[16.7 µM]	.	-1.0	20.0	-2.1	.
#4 CO[C@@H]1CN(C)C(=O)c2cc(NC(=O)c3ccccc3)ccc2OC[C@H](C)N(C)C[C@@H]1C
  3.7[16.7 µM]	.	-1.3	11.6	-5.2	.
#5 N#Cc1cnn2c1nc(N1CCCCC1)c1ccccc12
  133.8*	.	4.3	-14.7	10.0	.
#6 CC(C)c1ccc(S(=O)(=O)c2nnn3c2nc(N2CCCCC2)c2ccccc23)cc1
  .	.	.	.	.	7.6
#7 CC1Cc2nc(SCC(=O)Nc3ccc4c(c3)OCCO4)n(C)c(=O)c2S1 (centres undefined)
  -8.9	.	-4.0	15.9	8.8	-5.5
#8 CC1Cc2nc(SCC(=O)Nc3ccc4c(c3)OCO4)n(Cc3ccccc3)c(=O)c2S1 (centres undefined)
  16.3	.	4.3	-7.2	63.9*	59.0
#9 CCn1c(SCC(=O)NCc2ccc3c(c2)OCO3)nc2c(c1=O)SCC2
  .	30.7*	7.7	-10.1	-4.1	-12.8
#10 COCCn1c(SCC(=O)Nc2ccc3c(c2)OCCO3)nc2c(c1=O)SC(C)C2 (centres undefined)
  -0.5	17.2	-2.4	13.6	47.0*	13.9

Next section, starting with the last 2 of the part before.
Results follow in this order: miR122 inh	Wnt act	PglD DTNB	UUG fidelity	esBAF inh	MITF act
#9 CCn1c(SCC(=O)NCc2ccc3c(c2)OCO3)nc2c(c1=O)SCC2
  .	30.7*	7.7	-10.1	-4.1	-12.8
#10 COCCn1c(SCC(=O)Nc2ccc3c(c2)OCCO3)nc2c(c1=O)SC(C)C2 (centres undefined)
  -0.5	17.2	-2.4	13.6	47.0*	13.9
#11 CC1Cc2nc(SCC(=O)Nc3nccs3)n(Cc3ccccc3)c(=O)c2S1 (centres undefined)
  16.8	-7.0	1.4	-9.8	7.9	.
#12 O=C(N[C@H]1CC[C@H](CCn2cc(-c3cccnc3)nn2)O[C@@H]1CO)c1ccccc1F
  -9.8[16.7 µM]	.	0.9	-3.0	2.3	.
#13 CO[C@H]1CN(C)C(=O)c2ccc(NC(=O)c3ccno3)cc2OC[C@H](C)NC[C@@H]1C
  .	.	-3.7	.	1.0	.
#14 CC(C)Sc1nnc(NC(=O)c2ccc3c(c2)OCO3)s1
  .	-0.1	2.2	-17.0	37.0	87.8*
#15 CC(C)(C)c1nnc(NC(=O)COc2ccc3c(c2)OCO3)s1
  .	-2.1	-0.1	5.9	68.8*	85.0*
#16 C=CCNc1nc(N)c(C(=O)Nc2cc(C)on2)s1
  .	.	-7.3	-12.0	31.7	55.4
#17 C=CCNc1nc(N)c(C(=O)c2ccc3c(c2)OCO3)s1
  -13.1	.	-10.4	-18.0	52.3*	45.6
#18 CCOC(=O)c1sc(NC(=O)COc2ccc3c(c2)OCO3)nc1C
  -3.9	1.1	-0.9	-10.9	-9.8	.
#19 CC(C)(C)c1nnc(NC(=O)c2ccc3c(c2)OCO3)s1
  5.2	?	-0.9	-7.3	.	121.2*
#20 CNC[C@@H]1Oc2cc(-c3ccncc3)ccc2S(=O)(=O)N([C@H](C)CO)C[C@H]1C
  -1.9[16.7 µM]	.	1.5	0.3	-2.5	.
#21 COc1ccc(-c2cc(C(=O)NC(C)C)no2)cc1
  1.7	.	.	.	.	105.4*
#22 COc1ccc(-c2cc(C(=O)Nc3cc(C)ccc3O)no2)cc1
  -1.8	-5.7	-3.0	-16.5	22.2	40.7
#23 COc1ccc(-c2cc(C(=O)Nc3cc(Cl)ccc3O)no2)cc1
  -1.1	14.0	0.0	-6.5	?	113.5*
#24 Cc1ccc(Sc2cnc3ccccc3n2)cc1
  .	.	2.7	-27.8	66.3*	88.7*
#25 CO[C@H]1CN(C)C(=O)c2ccc(NC(=O)C3CC3)cc2OC[C@H](C)N(C(=O)CN(C)C)C[C@H]1C
  .	.	-1.3	-11.0	6.7	.
#26 CCOC(=O)C1CCCN1C(=O)c1ccc(OC)c(Br)c1 (centres undefined)
  -6.5	-2.1	3.1	-11.1	-0.8	13.5
#27 CCOC(=O)C1CCCCN1C(=O)c1cc2ccc(OC)cc2c2cc(OC)c(OC)cc12 (centres undefined)
  109.5*	-3.1	0.5	-22.6	-3.3	3.5
#28 CCCCN1C(=O)C(=O)N(c2ccccc2)C1=S
  .	0.8	.	.	.	121.9*
#29 CCCCN1C(=O)C(=O)N(CC(=O)N2CCN(c3ccccc3)CC2)C1=O
  .	1.7	.	.	.	2.2
#30 Cc1ccn2c(C(=O)c3ccc(Cl)cc3)cnc2c1
  -2.4	42.9*	1.2	-27.5	.	?
#31 Cc1ccc2cc(CCNC(=O)c3ccco3)c(=O)[nH]c2c1
  -4.0	.	-4.8	-14.4	26.0	103.2*
#32 Cc1cc2cc(CCNC(=O)c3cccs3)c(=O)[nH]c2cc1C
  -0.1	?	-2.0	-13.8	81.7*	.
#33 Cc1ccc2cc(CCNC(=O)c3ccco3)c(=O)[nH]c2c1C
  -6.8	?	2.1	-17.9	-28.9	104.0*

In the list so far, 2 contain a furan ring, fused or not.
Results follow in this order: miR122 inh	Wnt act	PglD DTNB	UUG fidelity	esBAF inh	MITF act
#31 Cc1ccc2cc(CCNC(=O)c3ccco3)c(=O)[nH]c2c1
  -4.0	.	-4.8	-14.4	26.0	103.2*
#33 Cc1ccc2cc(CCNC(=O)c3ccco3)c(=O)[nH]c2c1C
  -6.8	?	2.1	-17.9	-28.9	104.0*
